# ERp5 block – inhibitors of human ERp5; actives 0.05% (n = 350,000); ERp5 insulin aggregation, absorbance 650 nm, 90 min; inhibition, % at 9.99 µM; Q15084; AID 651711;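 active = mean replicate inhibition above about 25%, with every replicate also reaching it, limit read from the data, passing the limit was not always enough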
# Yeast UUG start – alters start codon recognition fidelity in yeast; AID 602363; activity score, % at 18.7 µM; 350,000 tested, 0.13% active; S. cerevisiae UUG-firefly luciferase reporter, luminescence/redox ratio;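 active means replicate mean at a twofold rise or more, about +100% in these data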;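 further: firefly luciferase made from a UUG start codon reports start codon fidelity; reporter light over untreated wells divided by growth signal over untreated wells; some hits fall short of that in this replicate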
# PDI turbidity – PDI (human) enzyme inhibition | PDI insulin aggregation turbidity, A650, 90 min | inhibition, % at 10 µM | actives 0.052% (n = 350,000) | AID 588391;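 active = mean inhibition across replicates of 30% or more, whatever share of single replicates reach that level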
# FGF22 binding – shifts melting point of recombinant human FGF22; actives 1.5% (n = 340,000); activity (Tm shift, normalised), % at 9.99 µM; recombinant FGF22 thermal shift, SYPRO orange fluorescence; percent of sucrose octasulfate shift, DMSO zero; AID 651658; Q9HCT0;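 active = mean Tm shift, scaled 0 neutral to 100 positive control, at about 1.3% or above, every replicate too, limit read from the data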
# PglD DTNB – inhibitors of Campylobacter jejuni PglD acetyltransferase; purified PglD enzyme, DTNB colorimetric CoA detection; actives 0.098% (n = 360,000); inhibition, % at 12.5 µM; in the data active = inhibition above about 16%, passing the limit was not always enough
# ARNT-TACC3 inh – disrupts binding between human ARNT and TACC3. Q9Y6A5. AlphaScreen His-ARNT PAS-B/GST-TACC3 binding, luminescence; TACC3 fragment carries E629A point mutation. inhibition, % at 9.99 µM. actives 0.66% (n = 390,000);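 active = mean inhibition of replicates at least 50% and at least half of replicates each reaching 50%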;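 also: 0% = complete ARNT plus TACC3 wells and 100% = ARNT alone without TACC3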
# Active calls of the source: *; x = no result. The list is not random: actives were taken first. Their share in the collection is about 1.9%.
# Letter code: A = ERp5 block; B = Yeast UUG start; C = PDI turbidity; D = FGF22 binding; E = PglD DTNB; F = ARNT-TACC3 inh
SMILES: COCCOC(=O)N1C(=O)[C@@]2(c3cc(C#CC4=CCCCC4)ccc31)[C@H](c1ccc(O)cc1)N1[C@H](c3ccccc3)[C@H](c3ccccc3)OC(=O)[C@H]1[C@@H]2C(N)=O
  A: -11 | B: -16 | C: x | D: 0 | E: 9 | F: 15
SMILES: CCC(C)NC(=O)c1nc2c(nnn2Cc2ccccc2Cl)c(=O)[nH]1 (centres undefined)
  A: -1 | B: x | C: 4 | D: 43* | E: x | F: 6
SMILES: O=C(NCc1cccs1)c1nc2c(nnn2Cc2ccccc2Cl)c(=O)[nH]1
  A: x | B: -13 | C: -3 | D: x | E: 5 | F: 0
SMILES: CCc1nnc(NC(=O)c2oc3cc(C)c(C)cc3c2C)s1
  A: x | B: x | C: -4 | D: x | E: x | F: -3
SMILES: CCc1nnc(NC(=O)c2oc3ccccc3c2COC(C)C)s1
  A: 3 | B: -2 | C: 2 | D: 43* | E: 5 | F: -3
SMILES: Nc1cccc2cc(S(=O)(=O)O)ccc12
  A: 2 | B: -4 | C: -5 | D: 0 | E: -3 | F: 34
SMILES: O=Nc1c(O)ccc2cc(S(=O)(=O)O)ccc12
  A: x | B: -9 | C: -6 | D: x | E: 1 | F: 18*
SMILES: CN(C)c1ccc2cc(S(=O)(=O)O)cc(O)c2c1
  A: 0 | B: -3 | C: 20 | D: -1 | E: 11 | F: 36*
SMILES: C/C=C/c1ccc([C@H]2[C@@H](CO)N(C(=O)CC)[C@@H]2CNC(=O)CC2CC2)cc1
  A: x | B: -4 | C: x | D: x | E: 3 | F: -6
SMILES: CC(C)c1cccc(C(C)C)c1NC(=O)COC(=O)[C@H](C)NC(N)=O
  A: 5 | B: x | C: 12 | D: 0 | E: x | F: 1
SMILES: COC(=O)c1ccccc1NC(=O)COC(=O)[C@H](C)NC(N)=O
  A: -7 | B: 1 | C: -2 | D: 44* | E: 1 | F: 1
SMILES: CCc1ccccc1NCC(=O)Nc1ccccc1C(=O)OC
  A: 6 | B: x | C: -14 | D: 44* | E: x | F: -6
SMILES: Cc1ccc(S(=O)(=O)Nc2ccc3c(c2)C(=O)N([C@@H](C)CO)C[C@H](C)[C@@H](CN(C)C(=O)Nc2ccc(C(F)(F)F)cc2)OCCCC[C@H](C)O3)cc1
  A: 1 | B: -17 | C: x | D: 0 | E: 2 | F: -4
SMILES: Cc1nc2ccccc2n1CC(O)COc1ccc(Br)cc1 (centres undefined)
  A: 0 | B: x | C: -1 | D: 44* | E: x | F: 10
SMILES: O=C(C[C@@H]1C=C[C@@H](NS(=O)(=O)c2cccc(F)c2)[C@H](CO)O1)NCc1ccc2c(c1)OCO2
  A: -3 | B: -1 | C: x | D: 0 | E: -2 | F: -17
SMILES: O=C(O)Cn1c2c(c3ccccc31)CSc1ccc(Cl)cc1-2
  A: 0 | B: -16 | C: -3 | D: 1.9* | E: 13 | F: -9
SMILES: O=C(O)Cn1c2ccccc2c2ccccc21
  A: -6 | B: x | C: -11 | D: 42 | E: x | F: -10
SMILES: COc1ccc(Nc2nc(NCc3ccco3)nc(N/N=C/c3ccc(O)cc3)n2)cc1
  A: 3 | B: -25 | C: 0 | D: 1.9* | E: 10 | F: 12
SMILES: CC1CN(C(=S)SCCN2C(=O)CCC2=O)CC(C)O1 (centres undefined)
  A: 5 | B: x | C: 1 | D: 44* | E: x | F: -40
SMILES: O=C1CCC(=O)N1CCSC(=S)N1CCSCC1
  A: 3 | B: x | C: 4 | D: 0 | E: x | F: 12
SMILES: Cc1cccc(-c2ccc([C@@H]3[C@H](CO)N4CCCCN(S(=O)(=O)c5ccccc5C)C[C@@H]34)cc2)c1
  A: -5 | B: 4 | C: x | D: -1 | E: 5 | F: -4
SMILES: CN(C)c1ccc(O)c2c1CC1CC3C(N(C)C)C(=O)C(C(N)=O)=C(O)[C@@]3(O)C(=O)C1=C2O (some centres undefined)
  A: 1 | B: -15 | C: 0 | D: -1 | E: 3 | F: 40
SMILES: CN(C)c1ccc(O)c2c1CC1CC3[C@@H](N(C)C)C(=O)C(C(N)=O)C(=O)[C@]3(O)C(=O)C1C2=O (some centres undefined)
  A: -3 | B: 0 | C: 1 | D: 0 | E: 6 | F: 60*
SMILES: O=C1NCCCN1Cc1ccc(F)cc1
  A: x | B: -17 | C: -6 | D: x | E: -5 | F: -1
SMILES: O=C1NCCN1Cc1ccc(Cl)cc1
  A: 3 | B: -17 | C: 4 | D: 44* | E: -2 | F: 3

# (further entries)
molecule,ERp5 block,Yeast UUG start,PDI turbidity,FGF22 binding,PglD DTNB,ARNT-TACC3 inh
COc1ccc(NC(=O)Nc2cccc3c2O[C@@H](CN(C)S(=O)(=O)c2cn(C)cn2)[C@@H](C)CN([C@@H](C)CO)C3=O)cc1,0,-5,x,0,2,2
CN(Cc1ccon1)Cc1cn[nH]c1-c1ccc(-c2ccccc2)cc1,-3,x,-1,43*,x,x
O=C(NCC1CCCO1)C(=O)N/N=C/c1ccccc1C(=O)O (centres undefined),0,x,-3,43*,x,-3
O=C(NN=Cc1ccccc1C(=O)O)C(=O)NN=Cc1ccccc1C(=O)O,4,-5,4,0,-3,21

# Copied from the results shown, 3 compounds:
molecule,ERp5 block,Yeast UUG start,PDI turbidity,FGF22 binding,PglD DTNB,ARNT-TACC3 inh
COc1ccc(NC(=O)Nc2cccc3c2O[C@@H](CN(C)S(=O)(=O)c2cn(C)cn2)[C@@H](C)CN([C@@H](C)CO)C3=O)cc1,0,-5,x,0,2,2
CN(Cc1ccon1)Cc1cn[nH]c1-c1ccc(-c2ccccc2)cc1,-3,x,-1,43*,x,x
O=C(NCC1CCCO1)C(=O)N/N=C/c1ccccc1C(=O)O (centres undefined),0,x,-3,43*,x,-3
